# AlphaSeq binding of Ab-14 heavy chain variants to a spike HR2 peptide

Source: Li et al. 2023 (doi:10.1038/s41467-023-39022-2), MIT Lincoln Laboratory and A-Alpha Bio; data file from the FLAb repository.

All variants were tested on one target, the spike HR2 peptide PDVDLGDISGINAS (SARS-CoV-2).

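This is the validation round: designs drawn from the data on random variants, tested in the same kind of assay. Group labels follow the data file (Ctrl: baseline library sampled from a position-specific scoring matrix, with some repeated check sequences; Rand: our label for a block that the file lists under HC and that is probably the random mutants of the ten best first-round binders; En: ensemble of fine-tuned language models; GP: Gaussian process model; GPLM: also part of the Gaussian process libraries; HC: hill climbing; Gen: genetic algorithm; Gibbs: Gibbs sampling; a sequence that several methods proposed may carry one label only). The assay is AlphaSeq: two haploid yeast populations carry antibody and antigen on their surface. Pairs that bind mate more often; barcode pairs of the diploids are counted by sequencing. Each replicate has its own calibration line, from reference interactions of the BCL2 family. There are six technical replicates.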

Each scFv is VH, the linker GGGGSGGGGSGGGGS, VL, as in the parent Ab-14, and differs from it in the CDRs of the heavy chain only.
VH: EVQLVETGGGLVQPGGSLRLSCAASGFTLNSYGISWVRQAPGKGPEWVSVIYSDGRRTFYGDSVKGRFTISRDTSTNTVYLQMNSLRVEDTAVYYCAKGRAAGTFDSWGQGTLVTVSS
VL: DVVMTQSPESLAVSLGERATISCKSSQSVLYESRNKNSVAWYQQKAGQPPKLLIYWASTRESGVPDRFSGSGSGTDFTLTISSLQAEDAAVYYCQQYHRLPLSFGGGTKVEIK

Substitutions are numbered in sequence along the VH above, starting at 1 (not Kabat).
This list holds designs with at most six substitutions.
Values are apparent Kd, the geometric mean of the replicates that gave a signal; lower means stronger binding.
"nd" means that the variant was in the library but no mating with the target was seen in any replicate; the authors take this as a sign of poor binding, and no number exists.
The range of this assay differs from that of the first round, and the authors advise against merging the two.
The authors averaged sequences with at least three values out of six and counted those with two or fewer as poor binders.
Empty control strains, which show no peptide, gave a signal in 1% of pairings with all heavy chain designs; the median was 120 nM and 95% of these signals were weaker than 7.0 nM. No background was subtracted. The control count says in how many pairings with the empty strains this scFv gave a signal.
Of ten entries with the parent sequence, four were seen in most replicates (averages 2.2 nM to 240 nM), three in one and three in none, so single entries are noisy.

The variant T28H+N30M+R100K+A101E [Ctrl] showed 8.8 nM (6 of 6 replicates; controls 0 of 18). For S31M+R56K+G61S [GPLM_HC], the assay gave 43 nM (6 of 6 replicates; controls 1 of 18). For T28V+S31D+F59M [GP_HC], the assay gave nd (0 of 6 replicates; controls 0 of 18). For T28E+R100W+A101Q [GP_Gen], the assay gave 11 nM (5 of 6 replicates; controls 0 of 18). With T28D+K65R+A101L [Ctrl] the result was 3.0 nM (6 of 6 replicates; controls 0 of 18).

For S31E+F59A+A101Q [Ctrl], the assay gave 520 pM (6 of 6 replicates; controls 0 of 18). For S31D+F59M+A101Q [GP_HC], the assay gave 2.7 nM (6 of 6 replicates; controls 1 of 18). The variant N30C+I34Y+R56E+F59A+G99L [Ctrl] gave nd (0 of 6 replicates; controls 0 of 18). The variant T28G+G61A+S63R+R100W+A101T [GP_Gibbs] showed 24 nM (6 of 6 replicates; controls 1 of 18). With S31E+R56W+G61S+A101T+S107T [GP_Gibbs] the result was 2.3 nM (6 of 6 replicates; controls 1 of 18).

The variant R56F+G61A [Ctrl] gave 110 nM (5 of 6 replicates; controls 0 of 18). For T28Q+S31D+S63Q+R100K+A101T [GP_Gibbs], the assay gave 3.5 nM (6 of 6 replicates; controls 0 of 18). The variant S35A+G61S+A102G [Rand] gave 3.0 nM (1 of 6 replicates; controls 0 of 18). The variant T28S+N30K+G61A [GPLM_Gen] showed 830 pM (6 of 6 replicates; controls 0 of 18). The variant G26D+G99V+S107T [Ctrl] gave nd (0 of 6 replicates; controls 0 of 18).

The variant N30E+G61A+R100K [GPLM_Gen] gave 4.9 nM (6 of 6 replicates; controls 0 of 18). With T28A+F59A+A101N+S107I [Ctrl] the result was 8.0 nM (6 of 6 replicates; controls 0 of 18). The variant G61I+D62G [Ctrl] gave nd (0 of 6 replicates; controls 0 of 18). With R56W+G61S+A101V [GPLM_Gibbs] the result was 7.0 nM (6 of 6 replicates; controls 1 of 18). The variant N30D+G61S+R100K [GPLM_Gen] showed 740 pM (6 of 6 replicates; controls 0 of 18).

With G61Q+G103D [Ctrl] the result was nd (0 of 6 replicates; controls 1 of 18). The variant R57D [Ctrl] gave nd (0 of 6 replicates; controls 0 of 18). For T28E+G61A+S63K+R100K+A101T [GP_Gibbs], the assay gave 8.6 nM (6 of 6 replicates; controls 0 of 18). With T28N+S63K+R100K+A101E [GP_Gibbs] the result was 3.3 nM (6 of 6 replicates; controls 0 of 18). The variant S31E+G61S+G103V+S107K [GP_HC] gave nd (0 of 6 replicates; controls 0 of 18).

The variant G99R [Ctrl] showed nd (0 of 6 replicates; controls 0 of 18). The variant T28S+A101I+S107T [GPLM_Gen] gave 4.4 nM (6 of 6 replicates; controls 0 of 18). The variant S31D+A101F+A102G [Ctrl] gave nd (0 of 6 replicates; controls 0 of 18). With T28Q+S31E+G61V+R100Q+A101T [GP_Gibbs] the result was 2.6 nM (6 of 6 replicates; controls 0 of 18). The variant T28H+N30K+R56K+G61D [Ctrl] showed 180 nM (6 of 6 replicates; controls 0 of 18).

The variant T28Q+S31D+G61S+S63H+R100K [GP_HC] gave 21 nM (6 of 6 replicates; controls 1 of 18). For T28D+G61D+R100Q [GPLM_Gen], the assay gave 2.6 nM (6 of 6 replicates; controls 0 of 18). The variant R56K+F59E [Ctrl] showed 14 nM (3 of 6 replicates; controls 0 of 18). The variant G26Y+T28S+S31E+A101N [GP_Gen] showed 33 nM (6 of 6 replicates; controls 0 of 18). With I51T+G61S+V64Y+D106K [Ctrl] the result was nd (0 of 6 replicates; controls 0 of 18).

The variant R56M+G61S+S63Q+A101T [GP_Gibbs] gave 5.2 nM (6 of 6 replicates; controls 1 of 18). The variant T28D+S31E+S53A+G61I+R100T+S107Q [En_HC] showed 510 pM (6 of 6 replicates; controls 0 of 18). With T28D+S31E+S53A+G61D+R100N+S107Q [En_HC] the result was 450 pM (6 of 6 replicates; controls 1 of 18). With T28N+S31Q+A102H [Ctrl] the result was nd (0 of 6 replicates; controls 0 of 18). For S31E+A101T+D106T+S107L [GP_HC], the assay gave 9.1 nM (2 of 6 replicates; controls 0 of 18).

For T28Q+S31T+R56M+A101T [GP_Gibbs], the assay gave 84 nM (6 of 6 replicates; controls 0 of 18). The variant T28D+S31E+S53A+G61V+R100A+A101N [En_HC] gave 300 pM (6 of 6 replicates; controls 0 of 18). With T28S+R56Q+G61A [GPLM_Gen] the result was 2.0 nM (6 of 6 replicates; controls 0 of 18).

Extract of 4 entries:

With T28G+G61A+S63R+R100W+A101T [GP_Gibbs] the result was 24 nM (6 of 6 replicates; controls 1 of 18).
With T28N+S63K+R100K+A101E [GP_Gibbs] the result was 3.3 nM (6 of 6 replicates; controls 0 of 18).
With T28E+G61A+S63K+R100K+A101T [GP_Gibbs] the result was 8.6 nM (6 of 6 replicates; controls 0 of 18).
With N30C+I34Y+R56E+F59A+G99L [Ctrl] the result was nd (0 of 6 replicates; controls 0 of 18).